Conditions: mouse, in vivo, 25 mg/kg
Experimental: Cyclophosphamide (CTX), used as the positive drug, was purchased from Sigma (St. Lousis, MO, USA. Detecting kits for IL-2, TNF-α, VEGF, AST, ALT, CRE and BUN were purchased from Nanjing Jiancheng Biotechnology Co. (Nanjing, China).
24 h after the last administration, the whole blood was collected from the orbit. Serum was obtained from whole blood by centrifugation (3500 rpm, 15 min, 4 °C) and stored at −20 °C. The levels of IL-2, TNF-α, VEGF, AST, ALT, BUN and CRE in serum were determined in accordance with the procedures described in commercial kit instructions.

CC(C)(O)[C@H]1CC[C@@](C)(C2CC[C@]3(C)C2[C@H](O)CC2[C@@]4(C)CC[C@H](OC(=O)C5CCCN5)C(C)(C)C4CC[C@]23C)O1 (stereo partly drawn) [2e, (20S, 24R)-Epoxy-3β-O-(L-prolyl)-dammarane-12β, 25-diol]
BUN: 12.70 ± 2.24 ^#, ** mmol/L
